Laboratory results reported in publication PMC10393035.

Chains of the proteins cited; added tags and fusions are not shown.
BCLXL (human (endogenous in NAN12)), Q07817, UniProt Q07817, whole entry: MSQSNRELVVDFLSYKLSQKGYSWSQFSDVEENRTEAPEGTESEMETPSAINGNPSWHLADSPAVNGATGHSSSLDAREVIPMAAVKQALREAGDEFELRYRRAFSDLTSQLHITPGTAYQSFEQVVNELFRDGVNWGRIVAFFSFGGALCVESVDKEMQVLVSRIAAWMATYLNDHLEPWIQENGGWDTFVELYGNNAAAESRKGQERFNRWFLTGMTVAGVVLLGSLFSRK

Biological target: BCLXL (human (endogenous in NAN12)), Q07817
Assay: co-IP; BCLXL immunoprecipitated from NAN12 cell lysate (1% Digitonin containing buffer); unbound proteins (OUT) quantified and compared to total lysates (IN)
Conditions: remark: other sources report otherwise

B1: BAK, Q16611 1-211 (natural protein)
chain: MASGQGPGPPRQECGEPALPSASEEQVAQDTEEVFRSYVFYRHQQEQEAEGVAAPADPEMVTLPLQPSSTMGQVGRQLAIIGDDINRRYDSEFQTMLQHLQPTAENAYEYFTKIATSLFESGINWGRVVALLGFGYRLALHVYQHGLTGFLGQVTRFVVDFMLHHCIARWIAQRGGWVAALNLGNGPILNVLVVLGVVLLGQFVVRRFFKS
Work on B1 yielded a percent sequestered by BCLXL of 50%.
